{
  "sequences": {"note": "Protein sequences, listed by entry. Tags and fused reporters are not part of them. Lines headed by an entry give the natural chain unless they say otherwise; changes in a name come on top.", "UniProt P49841": "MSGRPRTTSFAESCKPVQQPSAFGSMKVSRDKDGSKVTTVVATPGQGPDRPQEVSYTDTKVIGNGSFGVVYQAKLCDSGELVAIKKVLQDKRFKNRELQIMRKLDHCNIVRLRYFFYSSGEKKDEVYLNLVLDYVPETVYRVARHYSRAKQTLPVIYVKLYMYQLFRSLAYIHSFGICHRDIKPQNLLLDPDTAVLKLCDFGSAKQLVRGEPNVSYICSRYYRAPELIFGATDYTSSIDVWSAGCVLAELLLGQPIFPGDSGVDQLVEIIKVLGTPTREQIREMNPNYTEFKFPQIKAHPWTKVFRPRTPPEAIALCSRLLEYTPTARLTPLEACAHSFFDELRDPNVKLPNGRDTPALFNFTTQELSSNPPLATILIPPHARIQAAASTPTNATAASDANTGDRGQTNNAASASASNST"},
  "source": "patent US10604514B2",
  "about": "“6-(5-membered heteroaryl)isoquinolin-3-yl carboxamides and preparation and use thereof” (Samumed, LLC, priority 2017, dated 2020)",
  "biological_target": "GSK3β kinase (Homo sapiens (Human), UniProt P49841)",
  "assay": "GSK3β kinase assay (Ser/Thr 09 peptide Z-lyte, FRET);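 note: Coumarin/fluorescein emission ratio converted to percent phosphorylation against unphosphorylated (0%) and phosphorylated (100%) controls, 1 h compound incubation at room temperature, 11-point threefold dilutions from 10 µM, run in duplicate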",
  "assay_type": "biochemical",
  "settings": "method text calls the value IC50",
  "data": [
    {"smiles": "[2H]c1c(NC(=O)C2CCN(CC(C)C)CC2)ncc2ccc(-c3cnn(C)c3)cc12", "note": "[Compound 6, 1-Isobutyl-N-(6-(1-methyl-1H-pyrazol-4-yl)isoquinolin-3-yl-4-d)piperidine-4-carboxamide]", "values": [
      {"measurement": "EC50", "result": 0.051, "unit": "µM"}
    ]}
  ]
}
